Values quoted from earlier work as cited in article PMC12281572.

Test: FTIR, 4-fluorophenol as donor (the pK_BHX database, per the paper)
Conditions: CCl4; 25 C

SMILES | pK_BHX (log10 Kf of the 1:1 H-bond complex with 4-fluorophenol, by FTIR)
Cc1c(N(C)C)c(=O)n(-c2ccccc2)n1C | 2.45 log units
O=c1ccc2ccccc2o1 | 1.3 log units
c1ccc2ccccc2c1 | -0.48 log units
